target: NAMPT (Homo sapiens (Human), UniProt P43490); settings: read-out: TR-FRET Binding IC50 (μM) probe 1

Sequences of proteins named here, by UniProt entry; tags and fusion partners are left off. A change or cut given only in a name is not applied to a line headed by its entry.
UniProt P43490: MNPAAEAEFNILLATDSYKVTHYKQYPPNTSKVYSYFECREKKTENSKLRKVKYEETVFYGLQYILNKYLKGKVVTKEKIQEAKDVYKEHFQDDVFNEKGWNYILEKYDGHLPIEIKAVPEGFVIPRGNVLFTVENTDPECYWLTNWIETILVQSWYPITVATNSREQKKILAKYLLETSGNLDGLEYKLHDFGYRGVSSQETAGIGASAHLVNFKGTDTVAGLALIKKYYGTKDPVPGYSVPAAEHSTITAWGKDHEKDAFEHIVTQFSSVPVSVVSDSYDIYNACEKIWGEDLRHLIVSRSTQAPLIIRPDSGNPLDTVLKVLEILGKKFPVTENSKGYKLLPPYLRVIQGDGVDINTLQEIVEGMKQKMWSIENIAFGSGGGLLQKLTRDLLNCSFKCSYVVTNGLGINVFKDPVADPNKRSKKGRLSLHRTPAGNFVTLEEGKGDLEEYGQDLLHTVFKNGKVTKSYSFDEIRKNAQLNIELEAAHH

`O=C(N[C@H](CO)c1ccccc1)c1ccc(NC(=O)N2Cc3ccncc3C2)cc1` [Example 437, N-[4-({[(1S)-2-hydroxy-1-phenylethyl]amino}carbonyl)phenyl]-1,3-dihydro-2H-pyrrolo[3,4-c]pyridine-2-carboxamide] and `O=C(NCc1cccc(F)c1)c1ccc(NC(=O)N2Cc3ccccc3C2)cc1` [Example 23, N-{4-[(3-fluorobenzyl)carbamoyl]phenyl}-1,3-dihydro-2H-isoindole-2-carboxamide] are within 1.5-fold of each other in IC50: 0.008 µM for the first, 0.0119 µM for the second.

Going from `O=C(NCCc1ccc(Cl)cc1)c1ccc(NC(=O)N2Cc3ccccc3C2)cc1` [Example 177, N-(4-{[2-(4-chlorophenyl)ethyl]carbamoyl}phenyl)-1,3-dihydro-2H-isoindole-2-carboxamide] to `COc1ccc(OC)c(CCNC(=O)c2ccc(NC(=O)N3Cc4ccccc4C3)cc2)c1` [Example 90, N-(4-{[2-(2,5-dimethoxyphenyl)ethyl]carbamoyl}phenyl)-1,3-dihydro-2H-isoindole-2-carboxamide], the IC50 falls from 0.123 µM to 0.0335 µM (3.7-fold).

First: O=C(Nc1ccc(C(=O)N2CCN(c3ccccn3)CC2)cc1)N1Cc2ccncc2C1 [Example 287, N-(4-{[4-(pyridin-2-yl)piperazin-1-yl]carbonyl}phenyl)-1,3-dihydro-2H-pyrrolo[3,4-c]pyridine-2-carboxamide]
Second: O=C(Nc1ccc(C(=O)N2CCN(c3cnccn3)CC2)cc1)N1Cc2ccc(F)cc2C1 [Example 35, 5-fluoro-N-(4-{[4-(pyrazin-2-yl)piperazin-1-yl]carbonyl}phenyl)-1,3-dihydro-2H-isoindole-2-carboxamide]
The IC50 of the first is 3.5-fold lower: 0.00435 µM for the first, 0.0152 µM for the second. The first is the more potent here.

Compared with `O=C(CCCOc1ccccc1)Nc1ccc(NC(=O)N2Cc3ccccc3C2)cc1` [Example 302, N-{4-[(4-phenoxybutanoyl)amino]phenyl}-1,3-dihydro-2H-isoindole-2-carboxamide], `O=C(Nc1ccc(/C=N/OCc2ccccc2)cc1)N1Cc2ccccc2C1` [Example 566, N-(4-{(E)-[(benzyloxy)imino]methyl}phenyl)-1,3-dihydro-2H-isoindole-2-carboxamide] is 12-fold higher in IC50: 0.0157 µM for the first, 0.193 µM for the second.

Going from `CN(C)c1cccc(C(=O)N2CC=C(c3ccc(NC(=O)N4Cc5ccccc5C4)cc3)CC2)c1` [Example 477, N-(4-{1-[3-(dimethylamino)benzoyl]-1,2,3,6-tetrahydropyridin-4-yl}phenyl)-1,3-dihydro-2H-isoindole-2-carboxamide] to `O=C(Nc1ccc(C(=O)N2CCN(c3nccc4sccc34)CC2)cc1)N1Cc2ccccc2C1` [Example 12, N-(4-{[4-(thieno[3,2-c]pyridin-4-yl)piperazin-1-yl]carbonyl}phenyl)-1,3-dihydro-2H-isoindole-2-carboxamide], the IC50 falls from 0.00996 µM to 0.00656 µM (1.5-fold). The second is the more potent here.

Compared with `O=C(NCCCn1ccnc1)c1ccc(NC(=O)N2Cc3ccccc3C2)cc1` [Example 148, N-(4-{[3-(1H-imidazol-1-yl)propyl]carbamoyl}phenyl)-1,3-dihydro-2H-isoindole-2-carboxamide], `O=C(NCCN1CCCC1=O)c1ccc(NC(=O)N2Cc3ccccc3C2)cc1` [Example 94, N-(4-{[2-(2-oxopyrrolidin-1-yl)ethyl]carbamoyl}phenyl)-1,3-dihydro-2H-isoindole-2-carboxamide] is 2-fold lower in IC50: 0.0702 µM for the first, 0.0354 µM for the second. The second is the more potent here.

`CCCCCCNC(=O)N1Cc2ccccc2C1` [Example 356, N-hexyl-1,3-dihydro-2H-isoindole-2-carboxamide] and `CC(C)CCNC(=O)CCCCCNC(=O)N1Cc2ccccc2C1` [Example 362, N-{6-[(3-methylbutyl)amino]-6-oxohexyl}-1,3-dihydro-2H-isoindole-2-carboxamide] are within 1.5-fold of each other in IC50: 0.404 µM for the first, 0.578 µM for the second.

Compared with `COc1ccc(NC(=O)c2ccc(NC(=O)N3Cc4ccccc4C3)cc2)cc1O` [Example 414, N-{4-[(3-hydroxy-4-methoxyphenyl)carbamoyl]phenyl}-1,3-dihydro-2H-isoindole-2-carboxamide], `CC(C)(O)CNC(=O)c1ccc(NC(=O)N2Cc3ccccc3C2)cc1` [Example 159, N-{4-[(2-hydroxy-2-methylpropyl)carbamoyl]phenyl}-1,3-dihydro-2H-isoindole-2-carboxamide] is 2.7-fold higher in IC50: 0.032 µM for the first, 0.0858 µM for the second. The first is the more potent here.

Compared with `O=C(NCCCCCCNC(=O)N1Cc2ccccc2C1)N1Cc2ccccc2C1` [Example 353, N,N′-hexane-1,6-diylbis(1,3-dihydro-2H-isoindole-2-carboxamide)], `O=C(N[C@H]1CCN(Cc2ccccc2)C1)c1ccc(NC(=O)N2Cc3ccccc3C2)cc1` [Example 220, N-(4-{[(3S)-1-benzylpyrrolidin-3-yl]carbamoyl}phenyl)-1,3-dihydro-2H-isoindole-2-carboxamide] is 38-fold higher in IC50: 0.00763 µM for the first, 0.293 µM for the second.

First: O=C(NCC1CCCC1)c1ccc(NC(=O)N2Cc3ccccc3C2)cc1 [Example 39, N-{4-[(cyclopentylmethyl)carbamoyl]phenyl}-1,3-dihydro-2H-isoindole-2-carboxamide]
Second: O=C(Nc1ccc(C(=O)N2CCC(F)(F)C2)cc1)N1Cc2ccccc2C1 [Example 218, N-{4-[(3,3-difluoropyrrolidin-1-yl)carbonyl]phenyl}-1,3-dihydro-2H-isoindole-2-carboxamide]
The IC50 of the first is 17-fold lower: 0.0166 µM for the first, 0.279 µM for the second.

Going from `O=C(NCCCc1ccccc1)c1ccc(NC(=O)N2Cc3cncnc3C2)cc1` [Example 431, N-(4-{[(3-phenylpropyl)amino]carbonyl}phenyl)-5,7-dihydro-6H-pyrrolo[3,4-d]pyrimidine-6-carboxamide] to `CCCNC(=O)c1ccc(NC(=O)N2Cc3ccc(-c4cccnc4)cc3C2)cc1` [Example 440, N-{4-[(propylamino)carbonyl]phenyl}-5-pyridin-3-yl-1,3-dihydro-2H-isoindole-2-carboxamide], the IC50 falls from 0.0607 µM to 0.0355 µM (1.7-fold).

Going from `CC(C)CCNC(=O)c1ccc(NC(=O)N2Cc3ccc(C(F)(F)F)cc3C2)cc1` [Example 86, N-{4-[(3-methylbutyl)carbamoyl]phenyl}-5-(trifluoromethyl)-1,3-dihydro-2H-isoindole-2-carboxamide] to `CC(C)CCNC(=O)c1ccc(NC(=O)N2Cc3ccccc3C2)nc1` [Example 370, N-{5-[(3-methylbutyl)carbamoyl]pyridin-2-yl}-1,3-dihydro-2H-isoindole-2-carboxamide], the IC50 falls from 0.0319 µM to 0.0075 µM (4.3-fold).

Going from `O=C(Nc1ccc(N2CCN(C(=O)c3cnccn3)CC2)cc1)N1Cc2ccccc2C1` [Example 533, N-{4-[4-(pyrazin-2-ylcarbonyl)piperazin-1-yl]phenyl}-1,3-dihydro-2H-isoindole-2-carboxamide] to `CCCC(=O)N1CCN(c2ccc(NC(=O)N3Cc4ccccc4C3)cc2)CC1` [Example 503, N-[4-(4-butyrylpiperazin-1-yl)phenyl]-1,3-dihydro-2H-isoindole-2-carboxamide], the IC50 falls from 0.294 µM to 0.0786 µM (3.7-fold). The second is the more potent here.

First: CCCc1nc(-c2ccc(NC(=O)N3Cc4ccccc4C3)cc2)no1 [Example 402, N-[4-(5-propyl-1,2,4-oxadiazol-3-yl)phenyl]-1,3-dihydro-2H-isoindole-2-carboxamide]
Second: CN1CCN(CCC(=O)Nc2ccc(NC(=O)N3Cc4ccccc4C3)cc2)CC1 [Example 312, N-(4-{[3-(4-methylpiperazin-1-yl)propanoyl]amino}phenyl)-1,3-dihydro-2H-isoindole-2-carboxamide]
The IC50 of the first is 1.6-fold higher: 0.183 µM for the first, 0.114 µM for the second.

For `O=C(Nc1ccc(N2CCN(C(=O)C3CCCO3)CC2)cc1)N1Cc2ccccc2C1` (centres unmarked) [Example 508, N-{4-[4-(tetrahydrofuran-2-ylcarbonyl)piperazin-1-yl]phenyl}-1,3-dihydro-2H-isoindole-2-carboxamide], the IC50 was 0.184 µM.

From US9302989B2 (priority 2010, dated 2016)
